The record followed here is patent US20040082598A1, “Compounds specific to adenosine A, receptors and uses thereof” (OSI Pharmaceuticals, Inc., priority 2000, published 2004).

By UniProt entry, the sequences of proteins in these tests, tags left out. Where a name states a change or a piece, a line headed by the entry shows the natural chain unless it says otherwise.
UniProt P30542, whole entry: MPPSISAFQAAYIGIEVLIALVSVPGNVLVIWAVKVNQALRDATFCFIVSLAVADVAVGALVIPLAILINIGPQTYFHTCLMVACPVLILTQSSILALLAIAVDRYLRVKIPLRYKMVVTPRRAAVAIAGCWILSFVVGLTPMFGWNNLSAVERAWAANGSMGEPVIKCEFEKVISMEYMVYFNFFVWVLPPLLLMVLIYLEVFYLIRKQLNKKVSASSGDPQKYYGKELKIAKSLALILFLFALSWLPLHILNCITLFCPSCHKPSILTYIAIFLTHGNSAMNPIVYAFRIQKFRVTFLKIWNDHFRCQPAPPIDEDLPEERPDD
UniProt P0DMS8, whole entry: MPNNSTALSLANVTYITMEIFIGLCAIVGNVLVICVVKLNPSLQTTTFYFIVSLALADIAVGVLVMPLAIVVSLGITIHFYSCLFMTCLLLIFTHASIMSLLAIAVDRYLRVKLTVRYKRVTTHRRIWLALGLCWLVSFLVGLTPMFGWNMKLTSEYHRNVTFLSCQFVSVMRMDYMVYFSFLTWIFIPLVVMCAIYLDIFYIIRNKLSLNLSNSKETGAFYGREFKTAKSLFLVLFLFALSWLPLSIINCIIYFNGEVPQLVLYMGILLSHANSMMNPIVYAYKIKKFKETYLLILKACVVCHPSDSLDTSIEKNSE

Assay [1] deals with T1, human adenosine A1 (A1R) (Homo sapiens, UniProt P30542).
T1 construct: yeast alpha-factor (Mfα1) prepro leader (N, cleaved yes); expressed in transfected cells; host or cells: Saccharomyces cerevisiae (strain CY12660 or related strains carrying plasmid p5095)
The assay is described as follows: Yeast β-galactosidase reporter gene assay, strain CY12660. Particulars: inhibition of NECA-induced β-galactosidase activity. It counts as cell-based.

Assay [2] deals with human A3 receptor (Homo sapiens, UniProt P0DMS8). The assay is described as follows: Displacement binding, yeast membranes expressing hA3R. Particulars: read-out: IC50 hA3R.

Structures are written as SMILES.

Usually IC50 stands for the point on the concentration scale where inhibition reaches its midpoint. With `Cc1[nH]c2nc(-c3ccccc3)nc(NC3CC[C@@H](O)[C@@H](O)C3)c2c1C` (some centres unmarked) [Compound 602], the IC50 in assay [1] was greater than 10000 nM. `C[C@H](Cc1ccccc1)Nc1ncnc2c1ncn2[C@@H]1O[C@H](CO)[C@@H](O)[C@H]1O` [R-PIA]: the 50% inhibitory concentration (IC50) in assay [2] was determined as 23.6 nM.
